{"sequences": {"note": "Protein sequences, listed by entry. Tags and fused reporters are not part of them.", "UniProt P34972, whole entry": "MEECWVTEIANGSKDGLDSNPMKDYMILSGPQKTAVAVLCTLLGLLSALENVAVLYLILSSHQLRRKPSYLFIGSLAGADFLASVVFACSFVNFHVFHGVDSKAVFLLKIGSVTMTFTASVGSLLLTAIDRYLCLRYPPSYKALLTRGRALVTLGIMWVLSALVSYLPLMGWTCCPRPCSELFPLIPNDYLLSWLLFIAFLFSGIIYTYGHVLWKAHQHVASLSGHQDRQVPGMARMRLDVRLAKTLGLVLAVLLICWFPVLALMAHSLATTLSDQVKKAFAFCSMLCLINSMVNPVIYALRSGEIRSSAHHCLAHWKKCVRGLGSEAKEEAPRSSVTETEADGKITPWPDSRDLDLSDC"}, "source": "paper PMC11833715", "about": "“Identification of a Cannabinoid Receptor 2 Allosteric Site Using Computational Modeling and Pharmacological Analysis” (ACS Pharmacology & Translational Science, 2025)", "molecular_target": "T1, WT CB2 (Homo sapiens, UniProt P34972)", "T1 construct": "expressed in transfected cells; host or cells: HEK293", "assay": "pGlo-Sensor-22F cAMP accumulation assay, WT CB2", "format": "cell-based", "settings": "pEC50/pIC50 values, agonist dose-response on CB2, vehicle control (no Ec2la)", "source_text": "Compounds were drawn using ChemDraw.", "note": "pEC50: −log10 of the molar value."}
{"smiles": "CCCCCCC(C)(C)c1cc(OC)c([C@@H]2C=C(CO)[C@@H]3C[C@H]2C3(C)C)c(OC)c1", "note": "[HU308]", "values": [{"measurement": "pEC50", "setting": "Figure S2", "value": 8.28}, {"measurement": "pEC50", "setting": "Figure S3", "value": 7.91}]}
